This note sets out measurements from PubChem BioAssay AID2528 (National Center for Advancing Translational Sciences (NCATS), 2010).

The chains behind the UniProt entries cited, without tags or fusion partners.
UniProt P54132, whole entry: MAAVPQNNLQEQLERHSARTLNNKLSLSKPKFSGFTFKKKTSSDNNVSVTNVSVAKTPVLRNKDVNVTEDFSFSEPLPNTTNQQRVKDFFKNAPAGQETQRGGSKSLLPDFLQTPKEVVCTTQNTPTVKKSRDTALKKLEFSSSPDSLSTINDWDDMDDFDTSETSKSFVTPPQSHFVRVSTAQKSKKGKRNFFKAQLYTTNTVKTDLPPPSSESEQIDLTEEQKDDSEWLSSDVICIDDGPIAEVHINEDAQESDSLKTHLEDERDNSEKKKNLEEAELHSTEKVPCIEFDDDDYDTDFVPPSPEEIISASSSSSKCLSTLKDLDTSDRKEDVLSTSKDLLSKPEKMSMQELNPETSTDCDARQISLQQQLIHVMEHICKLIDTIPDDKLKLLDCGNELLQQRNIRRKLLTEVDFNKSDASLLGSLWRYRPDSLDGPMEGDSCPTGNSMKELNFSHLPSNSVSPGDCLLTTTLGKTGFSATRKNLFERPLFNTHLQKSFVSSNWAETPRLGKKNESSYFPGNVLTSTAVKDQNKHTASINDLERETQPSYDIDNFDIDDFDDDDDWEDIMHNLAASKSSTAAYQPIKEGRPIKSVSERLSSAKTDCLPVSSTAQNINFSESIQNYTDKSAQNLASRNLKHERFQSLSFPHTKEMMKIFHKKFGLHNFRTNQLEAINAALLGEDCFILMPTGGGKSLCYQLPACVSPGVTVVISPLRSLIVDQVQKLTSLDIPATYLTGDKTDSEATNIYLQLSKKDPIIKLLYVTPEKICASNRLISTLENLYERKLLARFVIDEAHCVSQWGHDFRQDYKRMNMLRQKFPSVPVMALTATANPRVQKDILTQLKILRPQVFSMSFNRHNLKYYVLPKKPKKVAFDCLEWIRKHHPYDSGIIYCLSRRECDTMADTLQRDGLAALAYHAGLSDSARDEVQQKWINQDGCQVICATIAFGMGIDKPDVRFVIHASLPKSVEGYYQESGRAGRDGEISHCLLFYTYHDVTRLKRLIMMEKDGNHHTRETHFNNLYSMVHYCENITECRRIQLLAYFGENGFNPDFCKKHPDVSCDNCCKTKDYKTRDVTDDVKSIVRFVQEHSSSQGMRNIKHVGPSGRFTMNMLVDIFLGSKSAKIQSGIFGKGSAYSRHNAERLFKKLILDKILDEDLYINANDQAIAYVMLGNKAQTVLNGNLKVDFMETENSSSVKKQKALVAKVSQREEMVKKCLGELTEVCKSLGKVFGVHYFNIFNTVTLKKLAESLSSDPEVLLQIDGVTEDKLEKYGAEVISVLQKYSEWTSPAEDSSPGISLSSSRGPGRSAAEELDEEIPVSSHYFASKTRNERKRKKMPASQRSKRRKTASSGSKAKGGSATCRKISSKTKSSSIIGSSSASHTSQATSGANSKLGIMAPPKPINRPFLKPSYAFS

Several values for one entry are separate records, joined by “and”; a condition that tells them apart may be missing. Identical values can stand only once. Only a part is listed here, and it is no random draw. Activity calls are given as the source filed them. Calls follow the shape of the dose curve; as a rule, active = well fitted inhibition curve with a large enough effect; inconclusive = small, poorly fitted or top-dose-only effect; inactive = flat fitted curve, though single readings scatter.

In this assay the target is RecQ-like DNA helicase BLM (Homo sapiens) (UniProt P54132). Put plainly: qHTS Assay for Inhibitors of Bloom's syndrome helicase (BLM).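 Also: plate controls were vehicle for no effect and no enzyme for full effect; nearly all actives have a fitted effect of over 35% in size.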 As to conditions: recombinant BLM DNA unwinding, fluorescence dequenching; at 56.1 µM (top of the series). On the technique in general: In qHTS, concentration-response curves come from the screen itself.
In the case of `CCC(=O)N(c1ccccc1)C1CCN(CCc2ccccc2)CC1`, the activity change, negative = inhibition is inactive: -4.82%.

For the compound `CN(CCCl)CCCl`, the activity change, negative = inhibition was inactive: -6.65% and inactive: -6.81%.
